Earlier results in patent US20180085452A1, “MATRIX-EMBEDDED TOLERANCE-PROMOTING ADJUVANTS FOR SUBCUTANEOUS IMMUNOTHERAPY” (Tolerogenics S.a.r.l,, priority 2016, published 2018).

Tests used:
[1] = 45 mg CMS/kg/day in two divided doses, one to two weeks; 51 of 71 patients; cited from earlier work
[2] = cited from earlier work

Substance	steady state serum salicylate level, mean value [1] [mg/L]	rate of degradation in vivo [2]
choline magnesium trisalicylate [CMS]	213 ± 10	
poly(s-caprolactone) [PCL]		2-3 years
